In patent publication US20240207302A1, “ANTIVIRAL COMPOUNDS, METHODS FOR THE MANUFACTURING OF COMPOUNDS, ANTIVIRAL PHARMACEUTICAL COMPOSITION, USE OF THE COMPOUNDS AND METHOD FOR THE ORAL TREATMENT OF CORONAVIRUS INFECTION AND RELATED DISEASES THEREOF” (priority 2021, published 2024):

System: SARS-COV-2
Assay: SARS-COV-2 viral RNA synthesis in HuH-7 cells (real time RT-PCR)

Question: How did the SI turn out when `C/C(=C\CNc1ncnc2[nH]cnc12)CO` [MB-907, zeatin] was run?
Answer: 12000
